Target: Delta-type opioid receptor (Rattus norvegicus, UniProt P33533)
Test: Inhibition of [3H]DTLET binding torat brain membrane Opioid receptor delta 1

By UniProt entry, the sequences of proteins in these tests, tags left out.
UniProt P33533, whole entry: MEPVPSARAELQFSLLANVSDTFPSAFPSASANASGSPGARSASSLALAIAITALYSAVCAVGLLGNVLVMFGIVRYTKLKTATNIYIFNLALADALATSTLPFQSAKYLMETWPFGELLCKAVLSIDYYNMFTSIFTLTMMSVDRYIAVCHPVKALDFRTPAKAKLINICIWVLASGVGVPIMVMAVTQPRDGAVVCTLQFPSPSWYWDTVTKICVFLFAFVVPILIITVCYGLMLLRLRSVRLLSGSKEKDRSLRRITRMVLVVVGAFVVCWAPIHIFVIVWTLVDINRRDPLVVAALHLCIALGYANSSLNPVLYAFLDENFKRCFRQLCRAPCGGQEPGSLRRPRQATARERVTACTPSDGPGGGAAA

`CSCC[C@H](NC(=O)[C@H](Cc1ccccc1)NC(=O)CNC(=O)CNC(=O)[C@@H](N)Cc1ccc(O)cc1)C(=O)O` was tested. Which Ki did it give?
Its Ki is 7.3 nM.

From ChEMBL document CHEMBL1124249 (J Med Chem, 1988)
